This assay has as its system endogenous MEIS2 in M059J cells. Put plainly: Steady-state endogenous MEIS2 levels in M059J cells. As to conditions: 4 h, vs DMSO control. The format is cell-based, human.

In the case of `Nc1cccc2c1CN(C1CCC(=O)NC1=O)C2=O` (stereo not shown) [lenalidomide], the “Increase of endogenous MEIS2 steady-state level” value is given as “up to 2.5 fold”.

These data come from paper PMC4423819 (Nature, 2014).
